According to article PMC6664808 (Biotechnology and bioengineering, 2018):

How the values were obtained:
Experiment in all cases: flow cytometry on cells
Pro.v1-cNGF = Pro.v1-cNGF (Canis lupus familiaris, UniProt A0A8I3PYI3, point mutant)
Pro.v2-cNGF = Pro.v2-cNGF (Canis lupus familiaris, UniProt A0A8I3PYI3, point mutant)
Pro.v4-cNGF [1] = target: T1, Pro.v4-cNGF (Canis lupus familiaris, UniProt A0A8I3PYI3, point mutant)
Pro.v3-cNGF = Pro.v3-cNGF (Canis lupus familiaris, UniProt A0A8I3PYI3, point mutant)
Pro.v4-cNGF [2] = target: T1, Pro.v4-cNGF; remark: listed apart in the source

- signal:noise ratio (Pro.v1-cNGF): 6.5 ratio (MFI over MFI of unlabeled cells)
- signal:noise ratio (Pro.v2-cNGF): 10.1 ratio (MFI over MFI of unlabeled cells)
- signal:noise ratio (Pro.v4-cNGF [1]): 14.3 ratio (MFI over MFI of unlabeled cells)
- signal:noise ratio (Pro.v3-cNGF): 14.3 ratio (MFI over MFI of unlabeled cells)
- Kd (Pro.v4-cNGF [2]): 0.8 nM
B1: Tanezumab (antibody, V domains shown)
VH: QVQLQESGPGLVKPSETLSLTCTVSGFSLIGYDLNWIRQPPGKGLEWIGIIWGDGTTDYNSAVKSRVTISKDTSKNQFSLKLSSVTAADTAVYYCARGGYWYATSYYFDYWGQGTLVTVSS
VL: DIQMTQSPSSLSASVGDRVTITCRASQSISNNLNWYQQKPGKAPKLLIYYTSRFHSGVPSRFSGSGSGTDFTFTISSLQPEDIATYYCQQEHTLPYTFGQGTKLEIK
